Read-outs that look alike come from different tables or passages of the source.
How the values were obtained:
SSTR2 [1] = molecular target: T1, SSTR2 (Homo sapiens, UniProt P30874); experiment: Agonist activity evaluation (cAMP production suppression), SSTR2 receptor expression cells; format: cell-based; parameters: host or cells: CHO-K1 cells
[2] = Pharmacokinetics test with rats (intravenous and subcutaneous administration); details: rats; for BA: subcutaneous vs intravenous
SSTR5 [3] = molecular target: T2, SSTR5 (Homo sapiens, UniProt P35346); experiment: Agonist activity evaluation (cAMP production suppression), SSTR5 receptor expression cells; format: cell-based; parameters: host or cells: CHO-K1 cells
SSTR1 [4] = molecular target: T3, SSTR1 (Homo sapiens, UniProt P30872); experiment: Agonist activity evaluation (cAMP production suppression), SSTR1 receptor expression cells; format: cell-based
SSTR3 [5] = molecular target: T4, SSTR3 (Homo sapiens, UniProt P32745); experiment: Agonist activity evaluation (cAMP production suppression), SSTR3 receptor expression cells; format: cell-based; parameters: host or cells: CHO-K1 cells
SSTR4 = SSTR4 (Homo sapiens, UniProt P31391); experiment: Agonist activity evaluation (cAMP production suppression), SSTR4 receptor expression cells; format: cell-based
SSTR1 [6] = molecular target: T3, SSTR1; experiment: Competitive binding assay, SSTR1; details: Table 3B, Example 67-2, competitive binding assay; for IC50: read-out: SSTR1 IC50; for Ki: read-out: SSTR1 Ki
SSTR5 [7] = molecular target: T2, SSTR5; experiment: Competitive binding assay, SSTR5; details: Table 3B, Example 67-2, competitive binding assay; for IC50: read-out: SSTR5 IC50; for Ki: read-out: SSTR5 Ki
SSTR3 [8] = molecular target: T4, SSTR3; experiment: Competitive binding assay, SSTR3; details: Table 3B, Example 67-2, competitive binding assay; for IC50: read-out: SSTR3 IC50; for Ki: read-out: SSTR3 Ki
SSTR2 [9] = molecular target: T1, SSTR2; experiment: Competitive binding assay, SSTR2; details: Table 3B, Example 67-2, competitive binding assay; for IC50: read-out: SSTR2 IC50; for Ki: read-out: SSTR2 Ki
[10] = system: growth hormone (GH) production; experiment: GH production suppression test with rats; format: in vivo; details: Table 8 (Example 87), dose 10 nmol/kg, vehicle 1012
[11] = Table 3E, Example 67-4, read-out: IC50 of the agonist activity, SSTR2
[12] = intravenous administration, Table 5A (Examples 69-72), spread in the line below
[13] = intravenous administration, Tables 5B-5F (Examples 73-84)
[14] = subcutaneous administration, Table 5A (Examples 69-72), spread in the line below
[15] = subcutaneous administration, Tables 5B-5F (Examples 73-84)
[16] = Examples 69-72 (text on Table 5A)
[17] = Table 3E, Example 67-4, read-out: IC50 of the agonist activity, SSTR5
[18] = Table 3E, Example 67-4, read-out: IC50 of the agonist activity, SSTR1
[19] = Table 3E, Example 67-4, read-out: IC50 of the agonist activity, SSTR3
[20] = Table 3E, Example 67-4, read-out: IC50 of the agonist activity, SSTR4
[21] = Table 3D, Example 67-3, read-out: IC50 of cAMP production suppressing action (agonist activity), SSTR2
[22] = Table 3D, Example 67-3, read-out: IC50 of cAMP production suppressing action (agonist activity), SSTR5
[23] = Table 3D, Example 67-3, read-out: IC50 of cAMP production suppressing action (agonist activity), SSTR1
[24] = Table 3D, Example 67-3, read-out: IC50 of cAMP production suppressing action (agonist activity), SSTR3
[25] = Table 3D, Example 67-3, read-out: IC50 of cAMP production suppressing action (agonist activity), SSTR4

The chains behind the UniProt entries cited, without tags or fusion partners. Where a name states a change or a piece, a line headed by the entry shows the natural chain unless it says otherwise.
UniProt P30874: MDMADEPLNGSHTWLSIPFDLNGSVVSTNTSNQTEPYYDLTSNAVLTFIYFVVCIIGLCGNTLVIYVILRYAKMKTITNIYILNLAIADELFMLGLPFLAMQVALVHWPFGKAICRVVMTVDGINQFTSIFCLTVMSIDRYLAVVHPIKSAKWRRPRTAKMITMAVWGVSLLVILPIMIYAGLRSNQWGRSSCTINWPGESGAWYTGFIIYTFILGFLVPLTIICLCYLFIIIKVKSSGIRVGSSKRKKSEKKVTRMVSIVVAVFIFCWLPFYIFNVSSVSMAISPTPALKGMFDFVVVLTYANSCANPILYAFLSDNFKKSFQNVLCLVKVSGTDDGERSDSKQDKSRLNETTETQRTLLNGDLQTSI
UniProt P35346: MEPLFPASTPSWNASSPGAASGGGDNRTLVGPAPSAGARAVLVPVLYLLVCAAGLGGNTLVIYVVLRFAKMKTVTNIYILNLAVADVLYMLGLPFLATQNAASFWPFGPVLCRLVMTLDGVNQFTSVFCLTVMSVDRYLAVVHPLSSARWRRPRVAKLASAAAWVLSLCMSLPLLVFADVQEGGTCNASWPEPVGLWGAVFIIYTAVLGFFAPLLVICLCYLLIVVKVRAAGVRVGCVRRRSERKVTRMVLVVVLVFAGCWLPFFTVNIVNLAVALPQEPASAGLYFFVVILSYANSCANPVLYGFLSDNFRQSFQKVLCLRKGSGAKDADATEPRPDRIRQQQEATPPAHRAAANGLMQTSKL
UniProt P30872: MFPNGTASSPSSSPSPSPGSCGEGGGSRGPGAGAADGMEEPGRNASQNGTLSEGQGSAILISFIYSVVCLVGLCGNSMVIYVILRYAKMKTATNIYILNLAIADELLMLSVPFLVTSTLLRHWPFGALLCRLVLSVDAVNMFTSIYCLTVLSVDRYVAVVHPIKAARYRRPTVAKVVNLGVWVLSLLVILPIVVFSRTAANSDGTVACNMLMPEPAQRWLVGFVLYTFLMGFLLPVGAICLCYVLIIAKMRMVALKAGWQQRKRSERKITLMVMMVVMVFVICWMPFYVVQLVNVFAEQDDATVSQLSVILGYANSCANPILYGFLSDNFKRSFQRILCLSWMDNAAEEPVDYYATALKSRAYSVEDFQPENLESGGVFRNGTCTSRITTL
UniProt P32745: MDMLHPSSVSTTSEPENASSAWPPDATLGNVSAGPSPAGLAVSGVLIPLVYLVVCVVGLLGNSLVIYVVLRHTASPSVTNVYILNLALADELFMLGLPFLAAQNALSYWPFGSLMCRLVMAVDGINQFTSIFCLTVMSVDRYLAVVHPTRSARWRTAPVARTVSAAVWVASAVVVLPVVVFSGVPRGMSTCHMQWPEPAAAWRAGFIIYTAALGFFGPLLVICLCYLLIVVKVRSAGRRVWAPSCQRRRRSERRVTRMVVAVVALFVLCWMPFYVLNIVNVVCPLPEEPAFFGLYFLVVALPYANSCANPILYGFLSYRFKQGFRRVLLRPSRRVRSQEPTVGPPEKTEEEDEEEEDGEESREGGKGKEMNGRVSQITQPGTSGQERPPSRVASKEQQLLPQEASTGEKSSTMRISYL
UniProt P31391: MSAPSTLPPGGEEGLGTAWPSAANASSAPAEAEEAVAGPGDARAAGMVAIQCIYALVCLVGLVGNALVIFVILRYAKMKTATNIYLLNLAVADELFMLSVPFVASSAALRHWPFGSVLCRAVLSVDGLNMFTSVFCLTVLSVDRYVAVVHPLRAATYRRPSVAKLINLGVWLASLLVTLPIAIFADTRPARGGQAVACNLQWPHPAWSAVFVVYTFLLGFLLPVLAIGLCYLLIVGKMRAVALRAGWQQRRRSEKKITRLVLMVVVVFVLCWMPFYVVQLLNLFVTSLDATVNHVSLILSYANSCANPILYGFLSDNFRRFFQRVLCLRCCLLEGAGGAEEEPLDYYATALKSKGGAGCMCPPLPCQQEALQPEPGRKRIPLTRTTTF

## S1-3C(disialo)-SRIF28 [Example 24]
SSTR2 [1]; [11]
  IC50: 0.19 nM
[2]; administered intravenously
  extension of t1/2 compared to the non-glycosylated form (SRIF28 or SRIF14): 30 folds
  increase of AUC compared to the non-glycosylated form (SRIF28 or SRIF14): 12 folds
[2]; [12]
  Intravenous administration AUC: 5660 nM·min
  Intravenous administration C0: 1061 nM
  Intravenous administration MRT: 24.0 min
  Intravenous administration t1/2: 38.5 min
[2]; [13]
  Intravenous administration AUC: 5834 nM·min
  Intravenous administration C0: 1083 nM
  Intravenous administration MRT: 23.8 min
  Intravenous administration T1/2: 39.5 min
[2]; [14]
  Subcutaneous administration AUC: 3884 nM·min
  Subcutaneous administration Cmax: 27.5 nM
  Subcutaneous administration MRT: 126 min
  Subcutaneous administration t1/2: 87.7 min
[2]; [15]
  Subcutaneous administration AUC: 4174 nM·min
  Subcutaneous administration Cmax: 30.7 nM
  Subcutaneous administration MRT: 115 min
  Subcutaneous administration T1/2: 79.3 min
[2]; BA=(AUC(sc)/Dose(sc))/(AUC(iv)/Dose(iv)), Table 5A
  BA: 69%
[2]; Tables 5B-5F (Examples 73-84)
  BA: 72%
[2]; [16]
  AUC for intravenous administration: 5660 nM·min
  bioavailability (BA), subcutaneous administration: 69%
SSTR5 [3]; [17]
  IC50: 0.97 nM
SSTR1 [4]; [18]
  IC50: 7.5 nM
SSTR3 [5]; [19]
  IC50: 0.79 nM
SSTR4; [20]
  IC50: 0.36 nM

## S1C (GlcNAc)-SRIF28 [Example 53]
SSTR1 [6]
  IC50: 5.91 nM
  Ki: 4.89 nM
SSTR2 [1]; [11]
  IC50: 0.04 nM
[2]; [13]
  Intravenous administration AUC: 690 nM·min
  Intravenous administration C0: 666 nM
  Intravenous administration MRT: 3.00 min
  Intravenous administration T1/2: 1.80 min
[2]; [15]
  Subcutaneous administration AUC: 63 nM·min
  Subcutaneous administration Cmax: 7.10 nM
  Subcutaneous administration MRT: 7.90 min
  Subcutaneous administration T1/2: 5.90 min
[2]; Tables 5B-5F (Examples 73-84)
  BA: 9%
SSTR5 [3]; [17]
  IC50: 0.031 nM
SSTR5 [7]
  IC50: 1.15 nM
  Ki: 0.65 nM
SSTR3 [8]
  IC50: 1.65 nM
  Ki: 0.555 nM
SSTR1 [4]; [18]
  IC50: 1.4 nM
SSTR2 [9]
  IC50: 0.225 nM
  Ki: 0.12 nM
SSTR3 [5]; [19]
  IC50: 0.14 nM
SSTR4; [20]
  IC50: 0.049 nM

## S1C(diGlcNAc)-SRIF28 [Example 50]
SSTR1 [6]
  IC50: 5.04 nM
  Ki: 4.17 nM
SSTR2 [1]; [11]
  IC50: 0.045 nM
[2]; [13]
  Intravenous administration AUC: 3588 nM·min
  Intravenous administration C0: 495 nM
  Intravenous administration MRT: 12.3 min
  Intravenous administration T1/2: 10.5 min
[2]; [15]
  Subcutaneous administration AUC: 445 nM·min
  Subcutaneous administration Cmax: 13.2 nM
  Subcutaneous administration MRT: 25.7 min
  Subcutaneous administration T1/2: 16.5 min
[2]; Tables 5B-5F (Examples 73-84)
  BA: 12%
SSTR5 [3]; [17]
  IC50: 0.033 nM
SSTR5 [7]
  IC50: 1.45 nM
  Ki: 0.82 nM
SSTR3 [8]
  IC50: 2.02 nM
  Ki: 0.69 nM
SSTR1 [4]; [18]
  IC50: 1.2 nM
SSTR2 [9]
  IC50: 0.19 nM
  Ki: 0.1 nM
SSTR3 [5]; [19]
  IC50: 0.14 nM
SSTR4; [20]
  IC50: 0.05 nM

## S1C(diMan)-SRIF28 [Example 51]
SSTR1 [6]
  IC50: 5.06 nM
  Ki: 4.18 nM
SSTR2 [1]; [11]
  IC50: 0.035 nM
[2]; [13]
  Intravenous administration AUC: 1445 nM·min
  Intravenous administration C0: 423 nM
  Intravenous administration MRT: 5.20 min
  Intravenous administration T1/2: 5.50 min
[2]; [15]
  Subcutaneous administration AUC: 124 nM·min
  Subcutaneous administration Cmax: 7.30 nM
  Subcutaneous administration MRT: 13.9 min
  Subcutaneous administration T1/2: 9.10 min
[2]; Tables 5B-5F (Examples 73-84)
  BA: 9%
SSTR5 [3]; [17]
  IC50: 0.037 nM
SSTR5 [7]
  IC50: 0.55 nM
  Ki: 0.31 nM
SSTR3 [8]
  IC50: 1.32 nM
  Ki: 0.45 nM
SSTR1 [4]; [18]
  IC50: 1.2 nM
SSTR2 [9]
  IC50: 0.14 nM
  Ki: 0.075 nM
SSTR3 [5]; [19]
  IC50: 0.11 nM
SSTR4; [20]
  IC50: 0.043 nM

## S1C(disialo(amide))-SRIF28 [Example 58]
SSTR1 [6]
  IC50: 5.09 nM
  Ki: 4.21 nM
SSTR2 [1]; [21]
  IC50: 0.055 ± 0.013 nM
[10]
  GH: 14 ng/mL
[2]; [13]
  Intravenous administration AUC: 5814 nM·min
  Intravenous administration C0: 1048 nM
  Intravenous administration MRT: 12.6 min
  Intravenous administration T1/2: 18.0 min
[2]; [15]
  Subcutaneous administration AUC: 961 nM·min
  Subcutaneous administration Cmax: 19.1 nM
  Subcutaneous administration MRT: 42.5 min
  Subcutaneous administration T1/2: 30.0 min
[2]; Tables 5B-5F (Examples 73-84)
  BA: 17%
SSTR5 [3]; [22]
  IC50: 0.043 ± 0.015 nM
SSTR5 [7]
  Ki: 1.47 nM
SSTR3 [8]
  IC50: 1.53 nM
  Ki: 0.522 nM
SSTR1 [4]; [23]
  IC50: 2.4 ± 1.7 nM
SSTR2 [9]
  IC50: 0.207 nM
  Ki: 0.11 nM
SSTR3 [5]; [24]
  IC50: 0.14 ± 0.06 nM
SSTR4; [25]
  IC50: 0.043 ± 0.023 nM

## S1C(disialo(aminoethylamide))-SRIF28 [Example 57]
SSTR1 [6]
  Ki: 1.94 nM
SSTR2 [1]; [21]
  IC50: 0.1 ± 0.02 nM
[10]
  GH: 314 ng/mL
[2]; [13]
  Intravenous administration AUC: 3473 nM·min
  Intravenous administration C0: 746 nM
  Intravenous administration MRT: 12.1 min
  Intravenous administration T1/2: 18.6 min
[2]; subcutaneous
  AUC for subcutaneous administration as fraction of S1C(disialo)-SRIF28: 1/7
[2]; [15]
  Subcutaneous administration AUC: 284 nM·min
  Subcutaneous administration Cmax: 9.60 nM
  Subcutaneous administration MRT: 33.2 min
  Subcutaneous administration T1/2: 27.1 min
[2]; Tables 5B-5F (Examples 73-84)
  BA: 8%
SSTR5 [3]; [22]
  IC50: 0.081 ± 0.019 nM
SSTR5 [7]
  IC50: 2.08 nM
SSTR3 [8]
  IC50: 0.766 nM
  Ki: 0.264 nM
SSTR1 [4]; [23]
  IC50: 1 ± 0.9 nM
SSTR2 [9]
  IC50: 0.101 nM
  Ki: 0.0536 nM
SSTR3 [5]; [24]
  IC50: 0.3 ± 0.15 nM
SSTR4; [25]
  IC50: 0.085 ± 0.011 nM

## S1C(tetrasialo)-SRIF28 [Example 56]
SSTR1 [6]
  IC50: 17.3 nM
  Ki: 14.2 nM
SSTR2 [1]; [11]
  IC50: 0.13 nM
SSTR5 [3]; [17]
  IC50: 0.11 nM
SSTR5 [7]
  Ki: 1.2 nM
SSTR3 [8]
  IC50: 5.63 nM
  Ki: 1.93 nM
SSTR1 [4]; [18]
  IC50: 2.8 nM
SSTR2 [9]
  IC50: 1.12 nM
  Ki: 0.597 nM
SSTR3 [5]; [19]
  IC50: 0.25 nM
SSTR4; [20]
  IC50: 0.081 nM

Source: US20170157260A1, “Glycosylated Polypeptide and Drug Composition Containing said Polypeptide” (Glytech, Inc., priority 2011, published 2017)
